Key:
[1] = target: human type 1 glycine transporter (GlyT1) (Homo sapiens, UniProt P48067); test: Glycine uptake inhibition experiment ([3H] glycine uptake in T98G cells); settings: read-out: IC50 (glycine uptake inhibiting activity), [3H] glycine 250 nM, 15 min, room temperature
Procedure: A glycine uptake inhibition experiment was conducted in accordance with the method described in Neuron, 8, 927-935, 1992. Used in the experiment were T98G cells (glioma cells) developing a human type 1 glycine transporter (GlyT1). The T98G cells were seeded in a 96-well plate at a density of 2.0×10^4 cells per well and cultured overnight in a CO2 incubator. The test substance was first dissolved in a 100% DMSO solution and then dissolved in a 10 mM HEPES buffer solution (pH 7.4) supplemented with 150 mM sodium chloride, 1 mM calcium chloride, 5 mM potassium chloride, 1 mM magnesium chloride, 10 mM glucose, and 0.2% bovine serum albumin. After removing the cell culture medium, the test substance was subjected to a 10-min pretreatment. […] The glycine content in the cells was determined by measuring the radioactivity in the cell lysate with a liquid scintillation counter. With the amount of glycine uptake in the presence of 10 μM ALX5407 being referred to as the nonspecific uptake, the amount of specific uptake was calculated by subtracting the amount of nonspecific uptake from the total amount of uptake in the absence of 10 μM ALX5407. In addition, glycine uptake inhibiting activity (IC50) was calculated from an inhibition curve for the concentration of the test substance ranging from 10^−9 to 10^−5 M.

Sequences of proteins named here, by UniProt entry; tags and fusion partners are left off.
UniProt P48067, whole entry: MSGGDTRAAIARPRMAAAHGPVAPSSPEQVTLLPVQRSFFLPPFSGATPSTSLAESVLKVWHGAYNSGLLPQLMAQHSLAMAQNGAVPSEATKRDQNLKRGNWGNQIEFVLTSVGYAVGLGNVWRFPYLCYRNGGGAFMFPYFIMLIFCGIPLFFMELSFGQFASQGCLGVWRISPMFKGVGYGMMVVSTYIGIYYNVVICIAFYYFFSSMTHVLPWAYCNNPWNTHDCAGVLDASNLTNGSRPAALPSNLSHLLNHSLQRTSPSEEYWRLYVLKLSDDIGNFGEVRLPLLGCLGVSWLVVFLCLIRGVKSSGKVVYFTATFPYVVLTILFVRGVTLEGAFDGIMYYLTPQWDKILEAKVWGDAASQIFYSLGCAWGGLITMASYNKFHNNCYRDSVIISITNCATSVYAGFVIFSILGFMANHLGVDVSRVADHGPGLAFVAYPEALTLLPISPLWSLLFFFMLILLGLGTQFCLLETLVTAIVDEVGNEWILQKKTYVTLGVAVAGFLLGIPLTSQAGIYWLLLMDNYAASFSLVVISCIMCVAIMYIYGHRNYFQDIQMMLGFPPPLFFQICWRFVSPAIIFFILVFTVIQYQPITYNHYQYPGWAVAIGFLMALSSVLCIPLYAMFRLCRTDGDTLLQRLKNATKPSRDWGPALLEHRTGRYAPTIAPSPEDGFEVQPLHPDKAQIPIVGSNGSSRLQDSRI
UniProt P08183, whole entry: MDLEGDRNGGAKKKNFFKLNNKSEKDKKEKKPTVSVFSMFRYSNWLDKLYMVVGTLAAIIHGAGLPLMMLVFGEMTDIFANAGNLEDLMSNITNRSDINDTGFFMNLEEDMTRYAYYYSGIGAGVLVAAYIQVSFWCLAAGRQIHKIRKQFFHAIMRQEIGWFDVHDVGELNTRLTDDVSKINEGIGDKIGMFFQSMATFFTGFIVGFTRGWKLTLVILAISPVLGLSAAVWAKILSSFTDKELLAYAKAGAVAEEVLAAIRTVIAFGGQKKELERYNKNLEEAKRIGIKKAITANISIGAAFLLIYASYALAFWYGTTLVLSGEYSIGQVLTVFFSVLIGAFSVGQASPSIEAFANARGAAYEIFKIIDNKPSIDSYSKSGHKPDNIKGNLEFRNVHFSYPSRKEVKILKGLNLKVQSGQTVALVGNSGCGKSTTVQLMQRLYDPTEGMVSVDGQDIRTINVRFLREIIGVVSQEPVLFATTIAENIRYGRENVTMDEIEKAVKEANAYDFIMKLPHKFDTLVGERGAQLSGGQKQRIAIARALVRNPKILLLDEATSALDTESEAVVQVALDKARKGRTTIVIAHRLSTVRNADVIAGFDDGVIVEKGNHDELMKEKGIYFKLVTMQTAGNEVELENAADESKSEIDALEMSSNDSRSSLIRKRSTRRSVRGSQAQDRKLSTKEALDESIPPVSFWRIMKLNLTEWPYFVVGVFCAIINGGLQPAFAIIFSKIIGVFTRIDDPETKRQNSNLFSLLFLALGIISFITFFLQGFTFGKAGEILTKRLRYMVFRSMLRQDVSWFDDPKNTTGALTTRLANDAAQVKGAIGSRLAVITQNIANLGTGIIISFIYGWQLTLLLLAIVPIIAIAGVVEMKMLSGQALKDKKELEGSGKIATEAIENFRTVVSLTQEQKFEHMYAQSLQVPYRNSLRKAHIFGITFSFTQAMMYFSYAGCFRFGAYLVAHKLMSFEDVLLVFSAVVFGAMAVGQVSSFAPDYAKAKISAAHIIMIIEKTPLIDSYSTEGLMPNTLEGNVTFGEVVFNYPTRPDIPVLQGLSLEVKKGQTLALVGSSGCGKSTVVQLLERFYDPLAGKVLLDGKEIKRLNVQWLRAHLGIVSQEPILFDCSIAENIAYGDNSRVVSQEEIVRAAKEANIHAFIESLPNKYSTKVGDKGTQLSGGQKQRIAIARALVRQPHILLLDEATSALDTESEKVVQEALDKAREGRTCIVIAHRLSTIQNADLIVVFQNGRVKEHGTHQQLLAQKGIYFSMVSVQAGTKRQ

[2] = target: P-gp (Human MDR1) (Homo sapiens, UniProt P08183); test: Test for recognizability of P-gp substrate (LLC-GA5-COL 300 cells); settings: 10 μM, criteria of Nature Reviews Drug Discovery (2010) 9, 215-236
Excerpt: In order that drugs acting on the central nervous system will develop their efficacy, their passage from the blood to the brain is generally important. While various efflux transporters are present at the blood-brain barrier to control this passage of drugs, P-glylcoprotein (P-gp) is a typical example and inhibits the passage to the brain of any drugs that serve as the substrate for P-gp. Therefore, in the development of pharmaceuticals, nonrecognizability of a candidate drug as the substrate for P-gp is the key to its passage to the brain.
A test for recognizability of P-gp substrate was performed in accordance with a modified version of the methods described in J. Pharmacol. Exp. Ther. (1992) Vol. 263, No. 2, 840-845 and J. Biol. Chem. (1992) Vol. 267, No. 34, 24248-24252. […] A solution of an assay compound (a DMSO solution of the compound as diluted with HBSS and adjusted to a final concentration of 10 μM) was added to the donor side of the LLC-GA5-COL 300 cells and a prescribed amount of HBSS was collected from the acceptor side at given time intervals and the concentration of the assay compound in the collected sample was measured by LC-MS/MS. […]

[3] = Membrane permeability experiment (PAMPA Evolution); settings: artificial lipid GIT-0, pH 4.0, 5.0, 6.2 and 7.4, marker metoprolol
Procedure: In the development of pharmaceuticals, membrane permeability is an important factor to consider from the viewpoint of relationship with the bodily absorption of a medicament to be administered orally. Compounds having high membrane permeability are expected to feature satisfactory absorption by the intestinal tract (see Pharmaceutical Research (2002) Vol. 19, No. 7, 921-925.)
A membrane permeability test was conducted using PAMPA Evolution™ (pION INC.) in accordance with a modified version of the recommended protocol of pION INC. To be more specific, solutions of an assay compound (i.e., a DMSO solution of the compound as diluted by being added to system solutions that had been adjusted to prescribed pHs (4.0, 5.0, 6.2, and 7.4)) were prepared and added to the lower compartment (donor) of a sandwich plate having a lipid bilayer membrane formed of an artificial lipid (GIT-0). An acceptor sink buffer was added to the upper compartment (acceptor) and after the lapse of a prescribed period, the cumulative permeation of the compound was measured by performing UV spectroscopy on the solutions in the donor and acceptor, and the membrane permeability coefficient Pe (×10^−6 cm/sec) was calculated to assay the membrane permeability of the compound. […]

IC50 [1]	SMILES	recognizability as P-gp substrate (efflux ratio basal→apical / apical→basal) [2]	membrane permeability coefficient Pe compared with metoprolol [3]
4.7 nM	Cn1cnc(C(=O)N(Cc2cccc(OC(F)(F)F)c2)C2CCOCC2)c1	not recognizable as the substrate for P-gp	
11.6 nM	Cn1cnc(C(=O)N(Cc2cccc(OC(F)(F)F)c2)C2CCOCC2)n1		higher Pe values than the high permeability marker compound metoprolol
	O=C(c1cn2c(n1)CCCC2)N(Cc1cccc(OC(F)(F)F)c1)C1CCOCC1		higher Pe values than the high permeability marker compound metoprolol
